Results taken from PMC5636616, “Studies on the Interaction of the Histone Demethylase KDM5B with Tricarboxylic Acid Cycle Intermediates” (Journal of Molecular Biology, 2017).
Where two headings read alike, the source gives them in different places.

Biological target: T1, KDM5B (Homo sapiens, UniProt Q9UGL1)
T1 construct: purified recombinant KDM5B (produced in Sf9 insect cells, M1-R822); made in house; host or cells: Sf9 insect cells
T1 sequence (Q9UGL1 1-822): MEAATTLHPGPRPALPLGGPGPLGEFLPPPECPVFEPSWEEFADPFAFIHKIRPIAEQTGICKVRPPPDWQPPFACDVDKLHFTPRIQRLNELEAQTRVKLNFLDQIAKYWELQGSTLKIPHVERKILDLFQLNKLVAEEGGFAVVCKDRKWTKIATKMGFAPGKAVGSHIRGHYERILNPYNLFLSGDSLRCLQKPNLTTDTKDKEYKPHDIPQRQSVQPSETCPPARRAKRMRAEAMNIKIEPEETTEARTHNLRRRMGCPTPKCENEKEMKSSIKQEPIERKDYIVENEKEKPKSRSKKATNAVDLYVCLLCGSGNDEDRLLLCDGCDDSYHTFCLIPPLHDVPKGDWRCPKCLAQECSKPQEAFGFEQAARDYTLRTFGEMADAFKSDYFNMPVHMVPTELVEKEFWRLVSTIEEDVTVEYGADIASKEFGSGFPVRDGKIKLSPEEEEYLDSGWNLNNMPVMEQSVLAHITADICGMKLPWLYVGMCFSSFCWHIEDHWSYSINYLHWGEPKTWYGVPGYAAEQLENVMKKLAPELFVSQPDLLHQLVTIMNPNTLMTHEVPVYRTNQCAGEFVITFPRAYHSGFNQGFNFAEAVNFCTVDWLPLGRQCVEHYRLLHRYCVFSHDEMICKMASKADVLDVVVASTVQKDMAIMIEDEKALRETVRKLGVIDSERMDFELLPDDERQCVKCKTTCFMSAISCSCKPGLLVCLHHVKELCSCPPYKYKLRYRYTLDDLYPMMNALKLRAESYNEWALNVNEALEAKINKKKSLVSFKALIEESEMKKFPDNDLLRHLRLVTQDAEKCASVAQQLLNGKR
Assay: KDM5B inhibition assay, MALDI-TOF-MS (IC50)
Format: biochemical
Settings: for IC50: 3 μM 2OG, 5 μM H3K4me2(1–21)

Q: Which results are given for O=C(O)CC(C(=O)O)C(O)C(=O)O (stereo not drawn) [Isocitrate]?
A: IC50 (0.6 μM KDM5B, 10 μM Fe(II), 500 μM L-ascorbate, pH 7.5, errors 95% confidence intervals): Inactive; IC50 (read-out: IC50): > 1000 µM; inhibition at 1000 µM (read-out: inhibition at 1 mM): 10%
